Test results taken from patent US20240383908A1, “SYNTHESIS AND APPLICATION OF PHOSPHATASE DEGRADER” (HINOVA PHARMACEUTICALS INC., priority 2021, published 2024).

Amino acid sequences for entries named in this document (tags omitted).
UniProt Q06124, whole entry: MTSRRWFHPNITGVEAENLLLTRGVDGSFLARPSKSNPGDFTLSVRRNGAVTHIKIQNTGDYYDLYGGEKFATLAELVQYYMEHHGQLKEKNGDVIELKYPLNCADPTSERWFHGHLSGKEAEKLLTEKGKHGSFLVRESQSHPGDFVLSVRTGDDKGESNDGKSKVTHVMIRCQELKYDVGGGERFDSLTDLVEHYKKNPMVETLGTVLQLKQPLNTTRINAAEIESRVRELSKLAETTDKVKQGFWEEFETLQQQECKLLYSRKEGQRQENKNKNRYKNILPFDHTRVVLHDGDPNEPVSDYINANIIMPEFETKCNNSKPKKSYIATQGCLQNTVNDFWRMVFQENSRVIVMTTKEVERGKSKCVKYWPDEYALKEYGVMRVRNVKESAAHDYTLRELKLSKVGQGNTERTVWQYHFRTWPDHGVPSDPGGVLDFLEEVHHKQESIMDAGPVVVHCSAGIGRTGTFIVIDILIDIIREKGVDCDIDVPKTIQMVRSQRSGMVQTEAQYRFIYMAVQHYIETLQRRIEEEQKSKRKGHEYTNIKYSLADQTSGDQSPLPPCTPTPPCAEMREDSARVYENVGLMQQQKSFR

Experiments:
[1] = target: T1, SHP2 protein (Homo sapiens, UniProt Q06124); experiment: Degradation activity on SHP2 protein in NCI-H358 cells (Western blot, DC50); conditions: read-out: Degradation activity for differenct cell lines NCI-H358 (DC50)
Method: (§1) (1) MV-411 cells were cultured in the cell culture medium, and then well-growing cells were selected and inoculated in a 12-well plate, with 1 mL/well and 1×10^6 cells/well. The plate was incubated overnight in a 5% CO2 cell incubator at 37° C.
(§2) (2) 10 mM storage solution of each drug was prepared using dimethylsulfoxide (DMSO). The stock solution was diluted gradually with DMSO before use, and then 1 μL of the compound solution was added to the cell culture well (to ensure that the DMSO concentration in the culture system was […]), so that the final drug concentration is 100 nM, 10 nM, 3 nM, 1 nM, 0.3 nM, and 0.1 nM. Two wells were set for each concentration. The plate was gently shaken and mixed. Additionally, negative control wells (containing an equal amount of DMSO) and positive control wells were included.
(§3) (3) After 24 hours of cultivation, the cells were lysed using RIPA cell lysate, and the proteins were extracted. The protein concentration was measured using a BCA assay kit. 5× concentrated protein buffer was loaded, heated at 100° C. for 5 min, and then the sample was stored at −20° C.
(§4) (4) For each well, 30 μg of protein was loaded to polyacrylamide gel for electrophoresis. […]
(§5) (6) The images were analyzed with Image J grayscale, and the degradation ratio of protein bands in the test group was calculated, based on the negative control group (DMSO) (100%). […]

[2] = target: T1, SHP2 protein; experiment: Degradation activity on SHP2 protein in MIA Paca-2 cells (Western blot, DC50); conditions: read-out: Degradation activity for differenct cell lines MIA Paca-2 (DC50)
Method: as §1, §2, §3, §4, §5

Structure (SMILES) | DC50 [1] | DC50 [2]
CC1(N)CCN(c2cnc(Sc3cccc(NC(=O)c4ccc(N5CCC(N6CC=C(c7cnc(C(=O)NCc8ccc9c(c8)CN(C8CCC(=O)NC8=O)C9=O)c(F)c7)CC6)CC5)cc4)c3)cn2)CC1 (stereo not drawn) | < 100 nM | < 100 nM
C[C@@H]1OCC2(CCN(c3cnc(Sc4cccc(NCc5ccc(N6CCN(c7ccc(C(=O)NCc8ccc9c(c8)C(=O)N(C8CCC(=O)NC8=O)C9)nn7)CC6)c(F)c5)c4)cn3)CC2)[C@@H]1N (stereo partly drawn) |  | > 1000 nM
